# Earlier results as cited in US11390616B2 (BRISTOL-MYERS SQUIBB COMPANY, priority 2015, dated 2022).
# Conditions: estimated; Japp et al. 2010; cited from earlier work
substance,measurement,value
Apelin,half life in circulation,less than 5 minutes
